Biological target: Serine/threonine-protein kinase B-raf (Homo sapiens, UniProt P15056, V600E)

Protein sequences, listed by entry. Tags and fused reporters are not part of them. Residues count along the entry.
UniProt P15056, 2-766 V600E limits assumed: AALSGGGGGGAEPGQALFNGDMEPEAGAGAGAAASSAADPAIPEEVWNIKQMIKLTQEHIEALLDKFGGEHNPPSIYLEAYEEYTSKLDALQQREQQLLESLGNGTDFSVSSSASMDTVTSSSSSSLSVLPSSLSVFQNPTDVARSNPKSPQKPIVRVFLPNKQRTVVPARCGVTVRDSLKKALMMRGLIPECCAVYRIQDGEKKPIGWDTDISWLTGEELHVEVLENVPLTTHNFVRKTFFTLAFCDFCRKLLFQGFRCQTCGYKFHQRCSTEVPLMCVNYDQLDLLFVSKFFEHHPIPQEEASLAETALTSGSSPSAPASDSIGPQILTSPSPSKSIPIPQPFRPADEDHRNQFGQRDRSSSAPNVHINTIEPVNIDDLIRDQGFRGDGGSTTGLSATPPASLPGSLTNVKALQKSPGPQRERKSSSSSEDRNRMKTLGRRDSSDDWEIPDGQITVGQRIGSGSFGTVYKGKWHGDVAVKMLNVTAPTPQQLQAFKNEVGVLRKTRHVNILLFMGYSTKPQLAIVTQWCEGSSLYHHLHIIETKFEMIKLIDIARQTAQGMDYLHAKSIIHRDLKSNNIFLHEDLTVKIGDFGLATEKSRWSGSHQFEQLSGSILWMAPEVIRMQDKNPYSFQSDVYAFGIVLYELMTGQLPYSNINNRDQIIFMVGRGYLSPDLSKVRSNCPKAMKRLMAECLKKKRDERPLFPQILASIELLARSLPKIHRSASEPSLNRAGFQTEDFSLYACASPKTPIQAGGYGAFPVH

Q: `COc1nnc(-c2cc(NC(=O)c3ccnc(C(C)(C)F)c3)cnc2C)cc1N1CCOCC1` was tested. Which IC50 did it give?
A: 4.9 nM

From ChEMBL document CHEMBL5725296, “Biaryl amide compounds as kinase inhibitors” (2017)
